Source: publication PMC10218254 (International Journal of Molecular Sciences, 2023)

Biological target: SARS-CoV-2 PL^pro (Severe acute respiratory syndrome coronavirus 2, UniProt P0DTD1)
Test: cell-based

Structure (SMILES): COC(=O)/C=C/C(=O)NNC(=O)CCc1ccccc1C(=O)NC(C)c1cccc2ccccc12 (stereo not shown) [compound 3, reference compound]
- EC50: 2970 nM
